Antibody variant affinities, Ab-14 light chain, assay B

Source: Li et al. 2023 (doi:10.1038/s41467-023-39022-2), MIT Lincoln Laboratory and A-Alpha Bio; data file from the FLAb repository.

All variants were tested on one target, the spike HR2 peptide PDVDLGDISGINAS (SARS-CoV-2).

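Designed CDR sequences, proposed from the first random library and measured here. Their group label is 14L_GP_Gibbs (GP: Gaussian process model; Gibbs: Gibbs sampling; a sequence that several methods proposed may carry one label only). Affinity was read by AlphaSeq, a pooled yeast mating assay with surface-displayed partners. Binding brings cells together so that they mate, and sequencing counts the barcode pairs among the diploids. Read counts were normalised to the haploid input and turned into Kd by a linear fit to BCL2-family pairs of known affinity, for each replicate. The assay was run in six technical replicates.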

Ab-14 is the parent antibody, in scFv form: VH, then three GGGGS repeats, then VL. The heavy chain is unchanged in all variants.
VH: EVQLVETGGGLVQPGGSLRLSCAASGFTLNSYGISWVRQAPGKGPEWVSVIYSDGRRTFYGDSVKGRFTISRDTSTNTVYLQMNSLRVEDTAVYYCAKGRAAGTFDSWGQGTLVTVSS
VL: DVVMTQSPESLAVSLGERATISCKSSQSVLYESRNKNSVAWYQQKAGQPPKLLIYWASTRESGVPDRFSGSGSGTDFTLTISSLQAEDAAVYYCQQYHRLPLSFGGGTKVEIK

Positions count from residue 1 of the parent VL; S25L puts L in place of S. Affinities are written as log10 Kd with Kd in nM; a lower number is a better binder. Where no diploid with the target was found in that replicate, the entry reads "n.d.": below detection, most likely a poor binder, though not proof of it. Of ten entries with the parent sequence, four were seen in most replicates (averages 0.34 to 2.37), three in one and three in none, so single entries are noisy. The range of this assay differs from that of the first round, and the authors advise against merging the two. Nonspecific signal, from three strains lacking the peptide, appeared in 4% of pairings of all light chain designs, centred on 2.64 (5% of these signals below 1.59); values are not corrected for it. Also given: how often the same scFv was detected with the empty control strains, with their mean in brackets. The authors' rule: three or more of the six replicates give a measured affinity, fewer mean a poor binder.

changes | log10 Kd, replicates | empty controls
S25L V29Y L30E W56S T59Q S62H | -0.05 / -0.06 / 0.00 / -0.26 / -0.30 / -0.11 | 0/18
S25L V29W L30M Y31Q W56Q S62Q H98A | -0.33 / -0.31 / -0.54 / -0.13 / -0.39 / 0.10 | 0/18
S25L L30E E32Q S38A W56S S58Q | -0.29 / -0.14 / -0.49 / -0.27 / -0.18 / -0.39 | 0/18
S25L S26P Q27G V29N K36L W56K E61L S62Q | 0.45 / 0.29 / 0.32 / 0.02 / 0.00 / 0.11 | 0/18
S25M S26M V29Q S33E N35A K36S S38A W56H T59Q | 0.22 / 0.21 / 0.16 / 0.05 / -0.08 / 0.48 | 3/18 (3.43)
S25Q Q27M L30M Y31M E32G S33D W56S S58H T59K E61M | 2.58 / 3.10 / 1.79 / 1.99 / 2.31 / 2.87 | 0/18
S25L S26M S28G V29W Y31M W56N T59M E61L S62E | 0.11 / -0.01 / 0.00 / 0.06 / -0.05 / 0.16 | 3/18 (2.61)
S25L S28M V29D N35M K36S W56M S62V | 0.34 / 0.19 / 0.22 / 0.52 / 0.09 / 0.63 | 0/18
S25M Q27M V29W L30P E32D R34L W56N E61M S62Q | 0.57 / 0.36 / 0.27 / 0.18 / 0.17 / 0.48 | 3/18 (2.61)
S25L S26M Q27C V29M L30E W56N | -0.05 / -0.50 / -0.23 / -0.58 / -0.39 / -0.36 | 0/18
S25I S26I S28E V29G W56S E61C S62P | 0.08 / -0.15 / -0.16 / -0.37 / -0.06 / -0.14 | 5/18 (2.84)
S25W S28L Y31G S33D W56N T59Q S62E | -0.20 / -0.40 / -0.37 / -0.40 / -0.35 / 0.06 | 1/18 (2.44)
S25L L30E Y31V E32L W56N S62M | 0.34 / -0.01 / -0.09 / 0.04 / 0.10 / 0.00 | 0/18
S25M S26Q Q27G V29Y K36C W56N E61L S62W | 0.94 / 0.98 / 0.88 / 0.90 / 0.92 / 1.02 | 2/18 (3.39)
K24H S25L S26E V29E L30E N35M W56N E61C | 0.16 / 0.02 / -0.09 / -0.16 / -0.16 / 0.03 | 1/18 (2.79)
S25L S26Q S28F L30E W56H E61L | 0.83 / 0.57 / 0.51 / 0.63 / 0.50 / 0.68 | 0/18
S25C L30K S33D K36W S38N W56N Q96D | -0.13 / 0.09 / -0.11 / -0.11 / -0.09 / 0.17 | 0/18
S25L S26Q Q27F S28L V29A Y31Q E32L W56S | 0.45 / 0.15 / -0.05 / 0.02 / 0.42 / 0.13 | 2/18 (2.21)
S25L S28M V29D N35M K36S W56M E61Y S62V | 0.78 / 1.00 / 0.87 / 0.67 / 0.88 / 1.00 | 1/18 (2.60)
Q27T V29Q L30E S33D W56H E61L S62Q | 0.32 / 0.10 / -0.19 / 0.21 / 0.01 / 0.02 | 0/18
S25L S26Q V29E Y31M K36M W56H T59K Q96D | 0.54 / 0.19 / 1.47 / 1.33 / 1.01 / 0.45 | 0/18
S25I S26Q V29M K36S W56N E61M S62E S103M | 0.27 / 0.08 / 0.18 / -0.31 / -0.36 / 0.29 | 0/18
S25L S26Q V29N S38N W56E S58T T59Q S62Q | -0.29 / -0.32 / -0.20 / -0.37 / -0.35 / -0.31 | 1/18 (1.89)
S25L Q27M S28L V29W Y31G K36H W56S S58N | 0.33 / 0.10 / 0.22 / 0.16 / 0.13 / 0.15 | 0/18
S25L Q27M S28L V29H L30D W56Q | -0.09 / -0.26 / -0.32 / -0.28 / -0.25 / -0.11 | 1/18 (2.60)
S25L Q27E S28D V29A W56Q S62V | -0.28 / -0.54 / -0.62 / -0.47 / -0.60 / -0.46 | 3/18 (2.95)
S25F S26F V29Q S33Q K36Q W56S T59Y E61L | 1.54 / 1.55 / 1.05 / 1.07 / 1.26 / 1.42 | 0/18
S25G S26Q V29Q L30Q R34Q K36W W56N T59Y | 0.86 / 0.80 / 0.41 / 1.18 / 1.16 / 0.93 | 2/18 (2.71)
S25L S26D Q27G V29D L30Q W56D Q96A | 0.34 / -0.11 / 0.04 / -0.06 / 0.10 / 0.21 | 4/18 (3.28)
S25W L30D W56N A57G S58Q S62A | -0.10 / -0.26 / -0.26 / -0.52 / -0.61 / -0.13 | 0/18
S25Q L30P Y31Q E32G S33E W56M T59Y E61L | n.d. / n.d. / 2.01 / 2.23 / 2.49 / 2.25 | 0/18

The 5 strongest on average among those seen in every replicate, once more:

changes	log10 Kd, replicates	empty controls
S25L Q27E S28D V29A W56Q S62V	-0.28 / -0.54 / -0.62 / -0.47 / -0.60 / -0.46	3/18 (2.95)
S25L S26M Q27C V29M L30E W56N	-0.05 / -0.50 / -0.23 / -0.58 / -0.39 / -0.36	0/18
S25W L30D W56N A57G S58Q S62A	-0.10 / -0.26 / -0.26 / -0.52 / -0.61 / -0.13	0/18
S25L S26Q V29N S38N W56E S58T T59Q S62Q	-0.29 / -0.32 / -0.20 / -0.37 / -0.35 / -0.31	1/18 (1.89)
S25L L30E E32Q S38A W56S S58Q	-0.29 / -0.14 / -0.49 / -0.27 / -0.18 / -0.39	0/18